Patent publication US20050228007A1, “Isoquinoline derivatives and methods of use thereof” (priority 2004, published 2005)
Several values for one entry are separate records, joined by “and”; a condition that tells them apart may be missing. Equal values may be shown once. Where a name gives a salt, the structure may show the parent alone.

Test system: D-245 MG (PR) xenografts
Test: MMR deficient malignant glioma xenograft, combination with temozolomide
Type: in vivo, mice

SMILES | partial regressions observed (8l (mesylate salt) 150 mg/kg i.p. x3 + 262.5 mg/kg TMZ, MMR deficient, two experiments) | effect on tumor volume (FIG. 1) (8l (mesylate salt) with temozolomide vs temozolomide alone) | tumor-control growth delay (TMZ alone 262.5 mg/kg (0.75 LD10), MMR deficient, two experiments) [days]
O=c1[nH]c2c(c3ccccc13)Cc1cc(S(=O)(=O)NCCCN3CCOCC3)ccc1-2 [Compound 8l (mesylate salt), 9-[N-(3-[morpholino-4-yl]propyl)-aminosulphonyl]-5,6-dihydro-5-oxo-11H-indeno-[1,2c]isoquinoline] | 4 of 8 and 3 of 9 | markedly enhances the anti-tumor effects of TMZ | –
Cn1nnc2c(C(N)=O)ncn2c1=O [TMZ, temozolomide, reference compound] | – | – | ~4
